Therapeutic index data for one molecule are collected here from US5461036A, “Spicamycin derivatives and their use as anticancer agents” (priority 1991, dated 1995).

The subject of this test is human colon cancer (COL-1). Type of test: in vivo, mouse. Particulars: /minimum effective dose (effective: TGIR≥50). Here is the method: (2) Method for measuring the antitumor effect on human colon cancer (COL-1)
COL-1, a human colon cancer, was transplanted subcutaneously into nude mice. When the tumor had grown to a volume of about 100 mm^3, the nude mice were divided into groups of 5 animals so that the average tumor volumes of respective groups were equalized. The respective spicamycin derivatives were administered to test groups at their MTDs, while physiological saline (solvent) containing 1% DMSO and 1% Cremophor EL® was administered to the control group. […] RV is expressed as RV =Vn/Vo where Vn is the tumor volume on day n and Vo is the initial tumor volume at the time treatment was commenced.

In turn, `CCCCCCCCC/C=C/C(=O)NCC(=O)N[C@@H]1[C@@H](O)[C@@H](O)[C@@H](Nc2ncnc3[nH]cnc23)O[C@H]1C(O)CO` (stereo partly drawn) [SPK86, 6-[4'-N-(N'-trans-2-dodecenoylglycyl)spicaminyl-amino]purine] came in with a Therapeutic index of 4.
